In PubChem BioAssay AID602340 (Broad Institute, 2012):
The list shows a part of the results, in another mix than the full data. Some salts or complexes appear as unconnected parts, following the source record. Active and inactive are the calls of the source.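 Rule for the calls: active = mean ATP rescue above about 67%, or every replicate alone reaching that limit (limit read from the data, passing the limit was not always enough); inconclusive = no clear call, values can overlap the other calls; inactive = mean under the limit and some replicate under it.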

Assay: suppressors of statin myotoxicity in C2C12 myotubes, primary screen, cell-based, single point, plate reader (AID 602340);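 note: myotubes were challenged with 10 µM simvastatin during compound exposure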
Conditions: C2C12 myotubes + simvastatin, ATP luminescence, 48 h; at 7.49 µM; stronger effect = higher value; scaled: DMSO 0, geranylgeraniol control 100

| SMILES | rescue of ATP level |
| --- | --- |
| COc1ccc(OP(C)(=O)Nc2ccc(Br)cc2)cc1 (stereo not given) | inactive: -1.14% |
| CP(=O)(Oc1ccccc1)N1CCOC1=O (stereo not given) | inactive: 1.69% |
| CCc1ccc(OP(C)(=O)Nc2cccnc2)cc1 (stereo not given) | inactive: 16.5% |
| COc1ccccc1OP(C)(=O)Nc1c(C)n(C)n(-c2ccccc2)c1=O (stereo not given) | inactive: 9.87% |
| O=C(OCCCN1CCCC1)C(O)(c1ccccc1)C1CCCCC1 (stereo not given) | inactive: -0.397% |
| CP(=O)(Nc1ccc(Cl)cc1)Oc1ccc(F)cc1 (stereo not given) | inactive: 17% |
| CC(C)(C)c1ccc(OP(C)(=O)O)cc1 | inactive: -25.1% |
| COc1ccccc1OP(C)(=O)Nc1ccccc1Br (stereo not given) | inactive: -8.96% |
| CP(=O)(OC12CC3CC(CC(C3)C1)C2)OC12CC3CC(CC(C3)C1)C2 | inactive: -12.4% |
| O=C1C(O)=C([N+](=O)[O-])C(=O)C(O)=C1[N+](=O)[O-] | inactive: -4.27% |
| COc1ccccc1OP(C)(=O)Nc1ccc(C)c(C)c1 (stereo not given) | inactive: -3.35% |
| CP(=O)(Nc1ccc(Cl)cc1Cl)Oc1ccccc1 (stereo not given) | inactive: -2.5% |
| COc1ccccc1OP(C)(=O)Nc1ccc(Br)cc1 (stereo not given) | inactive: 7.9% |
| CN(C)CCOC(=O)C(O)(c1ccccc1)C1CCCC1 (stereo not given) | inactive: 7.2% |
| COc1ccc(OP(C)(=O)Nc2ccccn2)cc1 (stereo not given) | inactive: -4.2% |
| O=[N+]([O-])c1cc([N+](=O)[O-])c(Nc2ccccn2)c([N+](=O)[O-])c1 | inactive: -0.237% |
| CCc1ccc(OP(C)(=O)O)cc1 | inactive: 1.21% |
| CP(=O)(Nc1ccccn1)Oc1ccccc1 (stereo not given) | inactive: 0.835% |
| COc1ccccc1OP(C)(=O)Nc1ccc(C)cc1C (stereo not given) | inactive: 1.75% |
| O=[N+]([O-])c1cc([N+](=O)[O-])c(Nc2ccc(Cl)cc2)c([N+](=O)[O-])c1 | inactive: -10.2% |

| SMILES | rescue of ATP level |
| --- | --- |
| CP(=O)(Nc1ccccc1F)Oc1ccccc1 (stereo not given) | inactive: 18.6% |
| COc1ccc2c(c1O)-c1c(O)c(OC)cc3c1[C@H](C2)[N+](C)(C)CC3.O=[N+]([O-])c1cc([N+](=O)[O-])c([O-])c([N+](=O)[O-])c1[O-] | inactive: -0.611% |
| Cc1c([N+](=O)[O-])cc([N+](=O)[O-])c(Br)c1[N+](=O)[O-] | inactive: -1.62% |
| O=[N+]([O-])c1cc([N+](=O)[O-])c(OC2CCCCC2O)c([N+](=O)[O-])c1 (stereo not given) | inactive: -0.837% |
| CP(=O)(Nc1ccccc1)Oc1ccc(F)cc1 (stereo not given) | inactive: 21.3% |
| COc1ccc(OP(C)(=O)Nc2cccc(Br)c2)cc1 (stereo not given) | inactive: 4.49% |
| COc1ccc(NP(C)(=O)Oc2ccccc2OC)cc1 (stereo not given) | inactive: 2.39% |
| Cc1cc(-c2cccc3ccccc23)c(C)cn1.O=[N+]([O-])c1cc([N+](=O)[O-])c(O)c([N+](=O)[O-])c1 | inactive: -103% |
| O=[N+]([O-])c1ccc(OP2(=O)COCCO2)cc1 (stereo not given) | inactive: -2.21% |
| Cc1c(C(c2ccc3c(c2)OCO3)c2c(C)n(C)n(-c3ccccc3)c2=O)c(=O)n(-c2ccccc2)n1C.O=[N+]([O-])c1cc([N+](=O)[O-])c(O)c([N+](=O)[O-])c1 | inactive: -7.01% |
| CP(=O)(Nc1ccc(SC(F)(F)F)cc1)Oc1ccc(F)cc1 (stereo not given) | inactive: -10.7% |
| CCOP(C)(=S)SCC(=O)NC(C)(CC)C(=O)O (stereo not given) | inactive: 11.4% |
| CP(=O)(Nc1ccc2c(c1)OCCO2)Oc1ccccc1 (stereo not given) | inactive: 25.1% |
| Cc1ccccc1NP(C)(=O)Nc1ccccc1C | inactive: 10.5% |
| O=[N+]([O-])c1cc([N+](=O)[O-])c(-n2nnc3ccccc32)c([N+](=O)[O-])c1 | inactive: 5.03% |
| CN(Cc1cccnc1)C(=O)COc1ccc(Cl)c(Cl)c1.O=[N+]([O-])c1cc([N+](=O)[O-])c(O)c([N+](=O)[O-])c1 | inactive: -3.35% |
| Cc1nc2ccc3ccccc3c2s1.O=[N+]([O-])c1cc([N+](=O)[O-])c(O)c([N+](=O)[O-])c1 | inactive: 30.2% |
| O=[N+]([O-])c1cc([N+](=O)[O-])c(Nc2nnnn2CCO)c([N+](=O)[O-])c1 | inactive: 3.15% |
| CC1=C2N=C(C=C3N=C(C(C)=C4[N-][C@@](C)([C@@H]5N=C1[C@](C)(CCC(=O)NC[C@@H](C)OP(=O)([O-])O[C@H]1[C@@H](O)[C@@H](n6cnc7cc(C)c(C)cc76)O[C@@H]1CO)[C@H]5CC(N)=O)[C@@](C)(CC(N)=O)[C@@H]4CCC(N)=O)[C@@](C)(CC(N)=O)[C@@H]3CCC(N)=O)C(C)(C)[C@@H]2CCC(N)=O.[C-]#N.[Co+3] | inactive: 1.77% |
| CN1CCCCC1COC(=O)C1(O)c2ccccc2CCc2ccccc21 (stereo not given) | inactive: -7.05% |

| SMILES | rescue of ATP level |
| --- | --- |
| COc1ccccc1OP(C)(=O)Nc1c(C)cccc1C (stereo not given) | inactive: 2.48% |
| CCCOc1ccc(NP(C)(=O)Oc2ccc(Cl)cc2)cc1 (stereo not given) | inactive: 1.64% |
| O=C(O)c1cccc(Nc2c([N+](=O)[O-])cc([N+](=O)[O-])cc2[N+](=O)[O-])c1 | inactive: -10.3% |
| CC1=NCCc2c1[nH]c1ccccc21.O=[N+]([O-])c1cc([N+](=O)[O-])c(O)c([N+](=O)[O-])c1 | inactive: -7.14% |
| COc1ccccc1OP(C)(=O)Nc1cccc(Br)c1 (stereo not given) | inactive: -2.79% |
| Cc1cc(C)cc(OP(C)(=O)Nc2ccc(C)cc2C)c1 (stereo not given) | inactive: -2.06% |
| Cc1cc(C)cc(OP(C)(=O)Nc2ccccn2)c1 (stereo not given) | inactive: 4.58% |
| Cc1ccc(C)c(NP(C)(=O)Oc2ccccc2)c1 (stereo not given) | inactive: 7.99% |
| O=[N+]([O-])c1cc([N+](=O)[O-])c(Nc2cccnc2)c([N+](=O)[O-])c1 | inactive: 18.9% |
| CCOC(=O)c1ccc(NP(C)(=O)Oc2ccccc2)cc1 (stereo not given) | inactive: 14.2% |
| Cc1ccc(NP(C)(=O)Oc2ccccc2)c(C)c1 (stereo not given) | inactive: 12.8% |
| COc1ccccc1OP(C)(=O)Nc1cc(Cl)ccc1C (stereo not given) | inactive: 2.8% |
| COc1ccc(OP(C)(=O)Nc2cccc(F)c2)cc1 (stereo not given) | inactive: 3.65% |
| Cc1cc(C)cc(OP(C)(N)=O)c1 (stereo not given) | inactive: -0.831% |
| CP(=S)(Nn1cnnc1)Oc1ccccc1 (stereo not given) | inactive: -5.36% |
| Cc1ccc(Nc2c([N+](=O)[O-])cc([N+](=O)[O-])cc2[N+](=O)[O-])cc1 | inactive: 4.65% |
| CP(=O)(Oc1ccccc1)OC(c1ccccc1)C(F)(F)F (stereo not given) | inactive: 9.1% |
| CP(=O)(NC(=O)Nc1ccccc1)Oc1ccccc1 (stereo not given) | inactive: 5.65% |
| CCOP(C)(=S)SCC(=O)NC(C)C(=O)O (stereo not given) | inactive: 4.35% |
| CP(=O)(Nc1ccccn1)Oc1ccc(Cl)cc1 (stereo not given) | inactive: 16.1% |
